Assay results published in publication PMC12523003, “Interplay between malic enzyme 2, de novo serine synthesis, and the malate-aspartate shuttle drives metabolic adaptation in triple-negative breast cancer” (Cancer & Metabolism, 2025).

Amino acid sequences for entries named in this document (tags omitted). Residues count along the entry.
UniProt P23368, 19-584: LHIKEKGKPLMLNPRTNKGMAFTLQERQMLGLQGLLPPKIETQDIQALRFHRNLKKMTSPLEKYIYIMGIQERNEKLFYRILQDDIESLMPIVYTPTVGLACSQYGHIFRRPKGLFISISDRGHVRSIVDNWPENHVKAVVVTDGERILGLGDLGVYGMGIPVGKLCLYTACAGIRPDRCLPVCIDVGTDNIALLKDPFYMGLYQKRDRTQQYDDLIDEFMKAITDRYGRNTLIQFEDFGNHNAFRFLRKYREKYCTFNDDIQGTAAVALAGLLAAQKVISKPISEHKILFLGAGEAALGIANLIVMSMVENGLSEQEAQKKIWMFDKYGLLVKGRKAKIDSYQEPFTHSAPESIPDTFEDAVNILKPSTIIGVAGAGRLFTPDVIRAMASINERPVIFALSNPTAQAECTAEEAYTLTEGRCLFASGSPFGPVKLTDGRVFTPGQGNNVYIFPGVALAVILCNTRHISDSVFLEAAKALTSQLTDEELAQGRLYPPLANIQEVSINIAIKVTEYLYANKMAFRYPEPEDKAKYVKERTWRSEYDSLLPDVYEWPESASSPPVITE

Biological target: Malic enzyme 2 (ME2) (Homo sapiens, UniProt P23368)

NC(=O)c1ccc[n+]([C@@H]2O[C@H](COP(=O)([O-])OP(=O)(O)OC[C@H]3O[C@@H](n4cnc5c(N)ncnc54)[C@H](O)[C@@H]3O)[C@@H](O)[C@H]2O)c1 [NAD^+]
X-ray crystal structure of ME2/NAD+ holoenzyme at 1.89 Å: with NAD^+ located within each active site cavity and buried within the tetramer interface
